## scFv variants of Ab-14 (heavy chain) against a SARS-CoV-2 spike peptide

From the AlphaSeq antibody data of Li et al. 2023 (doi:10.1038/s41467-023-39022-2), copy in the FLAb collection.

Target: peptide PDVDLGDISGINAS, taken from heptad repeat 2 (HR2) of SARS-CoV-2 spike.

Each scFv is VH, the linker GGGGSGGGGSGGGGS, VL, as in the parent Ab-14, and differs from it in the CDRs of the heavy chain only.
VH: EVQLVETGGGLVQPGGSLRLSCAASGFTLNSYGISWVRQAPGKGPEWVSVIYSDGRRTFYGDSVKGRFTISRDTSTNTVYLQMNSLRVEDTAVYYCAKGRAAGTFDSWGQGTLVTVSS
VL: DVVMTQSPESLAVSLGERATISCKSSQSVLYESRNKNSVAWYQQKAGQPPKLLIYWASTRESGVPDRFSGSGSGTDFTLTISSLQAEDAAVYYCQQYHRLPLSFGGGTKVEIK

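The parent was found by panning a naive human phage display library on the peptide. Designed CDR sequences, proposed from the first random library and measured here. Their group label is 14H_GP_Gen (GP: Gaussian process model; Gen: genetic algorithm; a sequence that several methods proposed may carry one label only). The assay is AlphaSeq: two haploid yeast populations carry antibody and antigen on their surface. After mating in shaken culture at 30 °C for 16 h, diploids were selected and their barcode pairs sequenced. Read counts were normalised to the haploid input and turned into Kd by a linear fit to BCL2-family pairs of known affinity, for each replicate. Mating was done six times.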

Variants are written as CDR1, CDR2 and CDR3 of the heavy chain (limits as in the source). Parent: GFTLNSYGIS, VIYSDGRRTFYGDSVK, GRAAGTFDS.
Numbers give log10(Kd / nM), so 0 is 1 nM and 3 is 1 µM. Smaller is tighter.
A pair that was not seen in that replicate is written "n.d."; this usually means weak binding, but a binder can also be missed.

| CDR-H1 | CDR-H2 | CDR-H3 | log10 Kd (nM) by replicate | control signals |
|---|---|---|---|---|
| GFTLNEYGIS | VIYSDGRRTFYSDSVK | GREAGTFDT | 0.72 0.79 0.45 0.32 0.45 0.72 | 0/18 |
| GFSLNSYGIS | VIYSDGRRTFYGDSVK | GREAGTFDQ | 0.33 -0.79 0.16 -0.88 -0.10 0.25 | 0/18 |
| GFELNSYGIS | VIYADGRRTFYGDSVK | GKAAGTFDT | -0.14 -0.23 -0.36 -0.36 -0.13 -0.10 | 0/18 |
| GFELNMYGIS | VIYSDGRRTFYGDSVK | GQAAGTFDK | 2.27 n.d. n.d. n.d. n.d. n.d. | 0/18 |
| HFSLNSYGIS | VIYSDGRRTFYADSVK | GQTAGTFDS | 0.36 0.23 0.24 0.47 0.58 0.64 | 0/18 |
| GFWLNEYGIS | VIYSDGRRTFYGDQVK | GRTAGTFDS | n.d. n.d. n.d. 0.16 n.d. n.d. | 0/18 |
| GFNLNSYGIS | VIYSDGRRTFYADMVK | GRQAGTFDS | 1.03 2.14 n.d. 2.41 n.d. 1.88 | 0/18 |
| GFDLNSYGIS | VIYSDGRRTFYIDSVK | GQAAGTFDT | 0.64 0.23 0.57 0.01 0.75 0.28 | 0/18 |
| GFDLNSYGIS | VIYSDGMRTFYVDSVK | GRQAGTFDS | 0.73 0.60 1.47 1.95 1.08 1.13 | 0/18 |
| GFDLNSYGIS | VIYSDGRRTFYVDSVK | GRQAGTFDT | -0.07 -0.25 1.03 0.57 0.00 0.24 | 0/18 |
| GFDLNSYGIS | VIYSDGRRTFYADSVK | GNVAGTFDS | 0.91 2.34 0.66 n.d. 0.89 0.94 | 0/18 |
| GFSLNSYGIS | VIYADGRRTFYGDSVK | GQAAGTFDR | -0.24 -0.41 -0.52 -0.39 -0.46 -0.25 | 0/18 |
| GFDLNSYGIS | VIYSDGRRTFYQDSVK | GKVAGTFDS | -0.01 0.08 0.28 -0.03 0.23 0.00 | 1/18 (3.75) |
| GFQLNSYGIS | VIYSDGQRTFYGDSVK | GRTAGTFDS | n.d. 1.08 n.d. 0.36 1.29 0.94 | 1/18 (1.30) |
| GFDLNSYGIS | VIYSDGRRTFYDDSVK | GRMAGTFDS | 0.60 -0.30 0.31 -0.03 -0.85 -0.16 | 0/18 |
| GFDLNSYGIS | VIYSDGRRTFYQDSVK | GHAAGTFDS | -0.17 -0.03 -0.26 -0.13 0.37 0.18 | 0/18 |
| GFDLNSYGIS | VIYSDGRRTFYSDMVK | GEAAGTFDS | 0.63 1.20 n.d. 1.51 0.09 0.85 | 0/18 |
| GFSLNSYGIS | VIYSDGRRTFYTDRVK | GEAAGTFDS | 0.80 1.77 0.53 0.85 0.90 1.22 | 2/18 (1.99) |
| GFTLNSYGIS | VIYSDGRRTFYKDSVK | GQTAGTFDL | 0.31 1.60 0.18 0.15 1.18 0.01 | 0/18 |
| HFNLNSYGIS | VIYSDGRRTFYGDSVK | GRQAGTFDS | 2.06 2.69 n.d. 2.13 2.71 2.87 | 0/18 |
| GFTLNSYGIS | VIYSDGKRTFYADNVK | GQAAGTFDL | 2.33 0.31 2.24 1.69 1.13 0.57 | 0/18 |
| GFSLNSYGIS | VIYSDGKRTFYKDSVK | GRTAGTFDS | 0.38 0.79 0.31 -0.21 -0.39 0.17 | 0/18 |
| GFELNTYGIS | VIYSDGRRTFYGDSVK | GREAGTFDS | n.d. n.d. n.d. n.d. n.d. n.d. | 0/18 |
| GFELNSYGIS | VIYADGRRTFYGDSVK | GRVAGTFDS | 0.67 0.20 0.24 0.53 0.12 0.37 | 0/18 |
| GFDLNSYGIS | VIYSDGRRTFYGDSVK | GQNAGTFDS | n.d. n.d. n.d. n.d. n.d. n.d. | 2/18 (1.03) |
| GFDLNSYGIS | VIYSDGRRTFYGDSVK | GEAAGTFDC | 1.53 2.07 2.09 1.48 3.23 2.41 | 0/18 |
| GFDLNSYGIS | VIYSDGKRTFYGDSVK | GQTAGTFDS | 0.46 0.47 1.07 1.10 0.71 0.68 | 0/18 |
| GFSLNEYGIS | VIYSDGRRTFYGDEVK | GRTAGTFDS | -0.20 -0.37 -0.63 -0.60 -0.38 -0.36 | 0/18 |
| GFDLNSYGIS | VIYSDGRRTFYGDRVK | GRTAGTFDD | 1.51 1.64 1.30 0.84 1.39 1.44 | 0/18 |
| GFDLNTYGIS | VIYSDGRRTFYDDSVK | GKAAGTFDS | 0.71 0.60 0.23 -0.55 0.50 0.54 | 0/18 |
| GFELNSYGIS | VIYSDGRRTFYGDSVK | GRTAGTFDK | n.d. 0.84 -0.43 n.d. 1.03 n.d. | 0/18 |
| GFDLNSYGIS | VIYSDGRRTFYSDSVK | GWTAGTFDS | -0.59 -0.60 -0.34 -0.69 -0.59 -0.54 | 0/18 |
| GFELNSYGIS | VIYSDGRRTFYGDSVK | GVEAGTFDT | 0.50 -0.30 -0.93 0.61 -0.44 -0.93 | 0/18 |
| GFNLNSYGIS | VIYSDGRRTFYGDQVK | GKIAGTFDS | n.d. n.d. 0.78 n.d. n.d. n.d. | 0/18 |
| GFSLNSYGIS | VIYSDGRRTFYGDNVK | GKIAGTFDS | n.d. n.d. n.d. n.d. 3.54 n.d. | 0/18 |
| GFELNSYGIS | VIYSDGRRTFYGDSVK | GEAAGTFDT | n.d. n.d. n.d. n.d. n.d. n.d. | 0/18 |
| GFSLNEYGIS | VIYSDGRRTFYKDSVK | GRTAGTFDT | -0.24 -0.64 -0.25 -0.42 -0.53 0.03 | 0/18 |
| GFDLNSYGIS | VIYSDGKRTFYGDSVK | GRVAGTFDS | 0.66 1.28 0.76 0.76 0.79 1.18 | 0/18 |
| GFSLNSYGIS | VIYSDGRRTFYGDDVK | GKTAGTFDS | 0.06 0.04 0.13 0.03 0.37 0.22 | 0/18 |
| GFTLNSYGIS | VIYSDGKRTFYGDSVK | GRTAGTFDV | n.d. n.d. n.d. 0.01 0.12 n.d. | 0/18 |
| GFDLNSYGIS | VIYSDGRRTFYLDSVK | GRQAGTFDS | n.d. 0.23 1.55 1.53 1.51 2.30 | 0/18 |
| GFDLNSYGIS | VIYSDGRRTFYGDQVK | GKQAGTFDS | 0.16 0.10 0.14 0.01 -0.01 0.39 | 1/18 (1.51) |
| GFELNSYGIS | VIYSDGRRTFYTDSVK | GRLAGTFDS | 0.11 1.30 1.04 1.17 n.d. 1.07 | 0/18 |
| GFELNSYGIS | VIYSDGRRTFYCDSVK | GQTAGTFDS | 0.15 0.33 0.14 0.12 -0.44 0.70 | 0/18 |
| GFELNEYGIS | VIYSDGRRTFYGDSVK | GSAAGTFDS | 1.09 0.59 0.97 0.70 0.46 0.56 | 0/18 |
| GFTLNSYGIS | VIYSDGRRTFYHDSVK | GQTAGTFDT | 0.06 0.30 0.99 0.03 0.59 0.12 | 1/18 (1.61) |
| GFSLNEYGIS | VIYSDGRRTFYGDSVK | GRTAGTFTS | 0.22 0.48 0.35 0.66 0.37 0.79 | 0/18 |
| MFNLNSYGIS | VIYSDGRRTFYGDSVK | GQTAGTFDS | n.d. n.d. 2.18 n.d. n.d. 2.37 | 0/18 |

Extract of 3 entries:

CDR-H1	CDR-H2	CDR-H3	log10 Kd (nM) by replicate	control signals
GFSLNSYGIS	VIYADGRRTFYGDSVK	GQAAGTFDR	-0.24 -0.41 -0.52 -0.39 -0.46 -0.25	0/18
GFSLNSYGIS	VIYSDGRRTFYTDRVK	GEAAGTFDS	0.80 1.77 0.53 0.85 0.90 1.22	2/18 (1.99)
GFQLNSYGIS	VIYSDGQRTFYGDSVK	GRTAGTFDS	n.d. 1.08 n.d. 0.36 1.29 0.94	1/18 (1.30)

Nonspecific signal, from three strains lacking the peptide, appeared in 1% of pairings of all heavy chain designs, centred on 2.08 (5% of these signals below 0.84); values are not corrected for it. For each scFv, signals with the empty controls are counted beside the result, with their mean in brackets.
Values of this round are not directly comparable with the first-round values of the same sequences.
In the paper, a design with two or fewer of six values counts as a poor binder.